{"sequences": {"note": "Amino acid sequences for entries named in this document (tags omitted).", "UniProt P27695, whole entry": "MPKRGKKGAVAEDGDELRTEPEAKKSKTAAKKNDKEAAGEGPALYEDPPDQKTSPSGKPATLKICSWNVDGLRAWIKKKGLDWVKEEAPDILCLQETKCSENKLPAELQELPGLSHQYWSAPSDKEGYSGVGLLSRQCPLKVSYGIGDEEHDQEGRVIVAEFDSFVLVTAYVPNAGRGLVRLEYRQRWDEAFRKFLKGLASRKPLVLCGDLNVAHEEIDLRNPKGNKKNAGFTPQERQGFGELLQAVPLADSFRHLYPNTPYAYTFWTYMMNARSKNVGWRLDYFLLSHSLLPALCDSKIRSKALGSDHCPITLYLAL"}, "source": "PubChem BioAssay AID2517", "about": "(National Center for Advancing Translational Sciences (NCATS), 2010)", "note": "Where “and” joins values, the source holds several entries; their conditions need not be identical. Equal values may be shown once. This is a selection; strong and weak results do not stand in their true shares. Records with an inconclusive call do not appear. Calls of active or inactive are those of the source. Calls come from the whole dose curve; as a rule, active = well fitted inhibition curve with a large enough effect; inconclusive = small, poorly fitted or top-dose-only effect; inactive = no such curve, though single readings can be large or run the other way.", "data": [{"target": "DNA repair nuclease/redox regulator APEX1 (Homo sapiens) (UniProt P27695)", "assay": "qHTS Assay for Inhibitors of the Human Apurinic/apyrimidinic Endonuclease 1 (APE1);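 note: plate controls were vehicle for no effect and reference inhibitor for full effect; nearly all actives have a fitted effect of over 55% in size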", "settings": "recombinant APE1, TAMRA/BHQ-2 abasic DNA cleavage fluorescence; at 65.8 µM (top of the series)", "values": [{"smiles": "CN(CCCl)CCCl", "activity change, negative = inhibition": "inactive: 16.6% and inactive: -7.33%"}, {"smiles": "CCC(=O)N(c1ccccc1)C1(COC)CCN(CCc2cccs2)CC1", "activity change, negative = inhibition": "inactive: 0.664%"}, {"smiles": "CCC(=O)N(c1ccccc1)C1(COC)CCN(CCn2nnn(CC)c2=O)CC1", "activity change, negative = inhibition": "inactive: 2.18%"}, {"smiles": "O=[N+]([O-])C(Cl)(Cl)Cl", "activity change, negative = inhibition": "inactive: -1.54%"}]}]}
